From PubChem BioAssay AID651560 (Sanford-Burnham Center for Chemical Genomics, 2012)
The entries are a selection whose mix differs from that of the whole data set. Calls of active or inactive are those of the source.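 Rule for the calls: active = compounds that cut the enzyme signal by at least half of the control window in the single-dose screen; inactive = the rest.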

By UniProt entry, the sequences of proteins in these tests, tags left out. Where a name states a change or a piece, a line headed by the entry shows the natural chain unless it says otherwise.
UniProt P24666: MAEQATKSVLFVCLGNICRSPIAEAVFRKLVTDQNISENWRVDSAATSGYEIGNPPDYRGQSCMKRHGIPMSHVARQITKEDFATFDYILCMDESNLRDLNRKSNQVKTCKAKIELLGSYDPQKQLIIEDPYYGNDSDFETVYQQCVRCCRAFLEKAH

Each molecule was assayed against Low molecular weight phosphotyrosine protein phosphatase (Homo sapiens) (UniProt P24666) (assay: LMPTP phosphatase inhibitors, primary screen, biochemical, fluorescence intensity, uHTS (AID 651560;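 note: plate controls were DMSO wells with enzyme plus substrate for no effect and substrate without enzyme for full effect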)). Settings: recombinant LMPTP-A, OMFP fluorogenic substrate, at 20 µM, active compounds read high.
How it was run: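 Material: LMPTP-A; amount: 0.625 nM enzyme; doses: single 20 µM dose; times: reaction 50 min, room temperature, dark; technique: fluorescence intensity of OMFP turnover product; benchmarks: no-enzyme and uninhibited controls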

SMILES	inhibition
Nc1ccc([As](=O)(O)c2ccc(N)cc2)cc1	inactive: 3.6%
C[N+]1=C2C=CC=CC=C2SC12C([N+](=O)[O-])=CC([N+](=O)[O-])=C[C-]2[N+](=O)[O-] (stereo not given)	active: 70.8%
CC1CCN(C(=O)Oc2c(Cl)cc(Cl)c3cccnc23)CC1	inactive: 1.14%
c1cc(-c2nn[nH]n2)ccc1-c1nn[nH]n1	inactive: -0.938%
CC(C)c1nc(Nc2ccccc2)n(P(=O)(N(C)C)N(C)C)n1	inactive: -1.35%
CC(C)=N/N=C(\N)N[N+](=O)[O-]	inactive: 4.62%
CN(C)C(=O)OCCc1n(C)cc[n+]1C	inactive: -9.5%
COc1ccc(C2=NCC(CBr)S2)cc1 (stereo not given)	inactive: -2.74%
Cc1ccc(NP(=O)(Oc2ccccc2)Oc2ccccc2)nc1	inactive: -1.35%
O=[N+]([O-])c1cc([N+](=O)[O-])c(CCNc2ccccc2)c([N+](=O)[O-])c1	inactive: 3.87%
CCc1nc2c(n1)c1c(non1O)c1c2no[n+]1[O-]	inactive: -0.815%
CC(=O)N1C2C3N(C(C)=O)C1C1N(C(C)=O)C(C(N1C(C)=O)N3C(C)=O)N2C(C)=O	inactive: -3.16%
O=[N+]([O-])c1cccc2n[nH]nc12	inactive: -1.77%
Oc1ccccc1CNc1ccccn1	inactive: 3.89%
O=C(NC(Sc1ccncn1)C(Cl)(Cl)Cl)c1ccccc1 (stereo not given)	inactive: -1.89%
Nc1cc(N)c2nonc2c1[N+](=O)[O-]	inactive: 3.91%
CC(C)CC(=O)NC(Sc1ccc(Cl)cc1)C(Cl)(Cl)Cl (stereo not given)	inactive: 0.595%
O=[N+]([O-])C1C(O)C(O)C([N+](=O)[O-])C(O)C1O (stereo not given)	inactive: 0.313%
CN(C(=O)Cc1ccc(Cl)c(Cl)c1)[C@H]1CCCC[C@H]1N1CCCC1	inactive: 0.84%
Cc1ccc(N/C(=N/P(=O)(N2CCOCC2)N2CCOCC2)N2CCOCC2)cc1	inactive: 0.675%
NC(=O)c1cc([N+](=O)[O-])cc([N+](=O)[O-])c1N	inactive: 1.02%
CN1CCCC(OC(=O)C(c2ccccc2)c2ccccc2)C1 (stereo not given)	inactive: -2.34%
Clc1ccc(Cl)c(NC2=NCC(CBr)S2)c1 (stereo not given)	inactive: 0.816%
COc1ccccc1OP(=O)(Nc1ccc(C)cn1)Oc1ccccc1OC	inactive: -0.543%
Cc1ccc(OP(=O)(Nc2nccs2)Oc2ccc(C)cc2)cc1	inactive: 0.851%

SMILES	inhibition
Nc1cccc2ccc([As](=O)(O)O)cc12	inactive: 1.95%
CCN(N=Nc1nonc1N)c1nonc1N	inactive: -2.76%
O=P(Nc1nc2ccc(Cl)cc2s1)(c1ccccc1)c1ccccc1	inactive: 3.07%
CN(C)P(=O)(N(C)C)n1c(Nc2ccccc2)nnc1-c1ccccc1	inactive: 1.45%
CC(=O)Nc1ccc([As](=O)(O)O)cc1	inactive: 0.0211%
O=C(O)c1ccccc1[As](=O)(O)O	inactive: -1.97%
CCCC1OP(N)(=O)OCC1CC (stereo not given)	inactive: -1.31%
Cc1cc(SC(NC(=O)c2ccc(F)cc2)C(Cl)(Cl)Cl)ncn1 (stereo not given)	inactive: 0.0869%
CCOP(=O)(Nc1ccccc1)OCC	inactive: -0.537%
CN(C(=O)Cc1ccc(Cl)c(Cl)c1)[C@H]1CCCC[C@@H]1N1CCCC1	inactive: -0.213%
Cc1ccc(NP(=O)(Oc2ccccc2F)Oc2ccccc2F)nc1	inactive: -0.636%
ClCCSc1nnc(-c2cccnc2)o1	inactive: -1.44%
COC(=O)C1(C)COP(=O)(N2CCCCCC2)OC1 (stereo not given)	inactive: -1.38%
CC(C)c1ccc(OP(=O)(Nc2ccccn2)Oc2ccccc2F)cc1 (stereo not given)	inactive: -0.502%
CC(C)NC(=O)NP(=O)(Oc1ccccc1)Oc1ccccc1	inactive: 4.83%
CCN(CC)C(=S)SC(NC=O)C(Cl)(Cl)Cl (stereo not given)	inactive: 0.269%
O=C(OC1CN2CCC1CC2)c1cccc2[nH]cnc12 (stereo not given)	inactive: -2.99%
O=[N+]([O-])c1cc([N+](=O)[O-])c(-c2ccn[nH]2)s1	inactive: 0.477%
C[As](=O)(O)c1cccc(C(=O)O)c1	inactive: -3.43%
O=[As](O)(c1ccc(O)cc1)c1ccccc1O	inactive: -0.251%
O=[N+]([O-])c1ccc(-c2cc([N+](=O)[O-])c(O)c([N+](=O)[O-])c2)cc1	inactive: 1.77%
COc1cc(C(=O)NCC2(N3CCOCC3)CCCCC2)ccc1OCC(C)C	inactive: -0.592%
Cc1ccc(OP(=O)(Nc2ccc([N+](=O)[O-])cn2)Oc2ccc(C)cc2)cc1	inactive: 1.5%
[N-]=[N+]=NC1CCCCC1NC(=O)c1cc([N+](=O)[O-])cc([N+](=O)[O-])c1 (stereo not given)	inactive: -1.68%
Cc1ccc2nc3c(c(C)c2c1)CC(C(Cl)Cl)S3 (stereo not given)	inactive: 2.69%
